## AlphaSeq binding of Ab-14 light chain variants to a spike HR2 peptide

Target: peptide PDVDLGDISGINAS, taken from heptad repeat 2 (HR2) of SARS-CoV-2 spike.

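Library AAYL50 holds single substitutions and randomly drawn double and triple substitutions in the CDRs. The scFvs were displayed on barcoded MATa yeast, the peptide on MATalpha yeast. Pairs that bind mate more often; barcode pairs of the diploids are counted by sequencing. Scores were corrected for input abundance and mapped to Kd with protein pairs of known affinity run in the same pool. Each pool was mated in three replicate cultures.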

Each scFv is VH, three GGGGS repeats, VL, as in the parent Ab-14, and differs from it in the CDRs of the light chain only.
VH: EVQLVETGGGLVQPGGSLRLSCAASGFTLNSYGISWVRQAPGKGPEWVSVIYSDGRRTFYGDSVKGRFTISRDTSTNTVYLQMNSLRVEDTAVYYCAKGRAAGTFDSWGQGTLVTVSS
VL: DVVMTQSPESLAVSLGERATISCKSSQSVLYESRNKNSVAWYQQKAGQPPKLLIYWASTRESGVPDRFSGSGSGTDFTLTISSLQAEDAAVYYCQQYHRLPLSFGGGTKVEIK

Changes read parent residue, position, new residue, counted from the first residue of the VL shown. Affinities are written as log10 Kd with Kd in nM; a lower number is a better binder. Replicates are averaged; those with no signal do not enter the mean. Where no diploid with the target was found in that replicate, the entry reads "nd": below detection, most likely a poor binder, though not proof of it. For reference, the parent read 0.65 as the reference entry and 1.68 as a member of this library. Three control strains display no target. For library AAYL50, 18% of the pairings with them gave a signal, with a median of 4.19 and one signal in twenty below 2.99, so weak values seen in few replicates may be background. The control count says in how many pairings with the empty strains this scFv gave a signal, with their mean in brackets.

changes,"log10 Kd, replicates","mean, log10 nM",control signals
S25Q S26R,0.75 0.93 0.89,0.85,3/9 (3.77)
S33Q P101Q,nd nd nd,nd,1/9 (3.95)
S62T Q95F L100P,1.70 1.64 1.60,1.65,3/9 (4.32)
V29E V39W W56M,1.93 2.05 2.26,2.08,0/9
Q27E H98S S103Q,1.42 1.44 1.55,1.47,3/9 (4.20)
R60N H98S,nd nd nd,nd,0/9
S25W Q27G A57L,1.97 2.24 2.14,2.11,2/9 (4.39)
Q27K S28L S62K,2.20 2.16 2.46,2.27,1/9 (3.29)
Y31H E32N L102Q,4.52 4.24 5.32,4.70,5/9 (4.56)
S38I Q95P L102W,5.49 3.39 5.29,4.72,4/9 (4.64)
L30D V39S L102V,nd 3.65 nd,3.65,0/9
S28W R34D K36L,2.07 1.66 1.78,1.83,0/9
S28V S62G Q96T,2.39 1.96 1.90,2.09,1/9 (4.20)
K36H E61I Q96V,nd nd nd,nd,1/9 (3.38)
S38G V39E L102V,4.36 nd nd,4.36,1/9 (5.04)
V29W R34Q L100I,1.16 1.35 1.50,1.33,0/9
E61M Y97Q,3.61 2.80 2.75,3.05,1/9 (4.56)
S28P W56T A57N,nd nd nd,nd,0/9
R34S,0.45 0.67 0.53,0.55,2/9 (5.01)
K24L W56S S58E,0.12 0.35 0.15,0.21,7/9 (4.70)
A57V T59F S62E,2.58 2.58 2.01,2.39,2/9 (4.84)
V29I W56Y P101F,1.33 1.34 1.36,1.34,3/9 (5.04)
S25R S38C Q96F,2.69 nd nd,2.69,0/9
S62Q L100Y S103K,1.97 2.11 2.49,2.19,3/9 (4.64)
Q27E S33A S38P,0.58 0.75 0.76,0.70,1/9 (4.97)
S26T S62F L102F,nd nd nd,nd,0/9
S62Y Y97E P101V,nd nd nd,nd,0/9
T59Y L102E,5.75 nd nd,5.75,3/9 (3.12)
S58D R60P H98S,1.46 1.56 1.52,1.51,2/9 (4.27)
V39I T59N R99S,nd nd nd,nd,1/9 (3.03)
V29M K36H L102K,3.08 nd nd,3.08,0/9
Q96N R99F P101V,nd nd nd,nd,0/9
Q96E R99S,0.48 0.67 0.59,0.58,2/9 (3.17)

From the AlphaSeq antibody data of Engelhart et al. 2022 (doi:10.1038/s41597-022-01779-4), copy in the FLAb collection.